Sampled rows, rich in hits. Any-hit rate of the full collection: about 0.94%.
p-CIP stab down: lowers stability of the mouse p/CIP coactivator protein | Q05BA5 | F442A p/CIP-EGFP cells, EGFP fluorescence, 16 h | decrease of EGFP signal, % at 10 µM | hit rate 0.01% among 290,000 | AID 1984;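 active = EGFP signal decrease of at least 30% at 10 µM or well 3 SD below plate mean, unless failing retest; inactive = the rest, including hits failing retest or dose response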
PKA-R2B act: PKA-R2B complex activation. hit rate 0.079% among 340,000. PKA-R2B holoenzyme dissociation, Cy5-IP20 fluorescence polarization; R2B truncated from residue 108, S112A mutant; 0% DMSO only, 100% 113 µM cGMP. activation, % at 11.4 µM. AID 504700. P22694+P31323;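 active = activation above a cutoff set at the mean over all compounds plus 3 SD, cut at about 18% in these data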;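 note: higher means more holoenzyme dissociation and a rise in polarization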
ABCB6 inh 2: human ABCB6 transporter inhibition | Q9NP58 | K562-ABCB6 porphyrin accumulation, flow cytometry, 1 h; stronger effect = lower value | fluorescence ratio to DMSO, % at 10 µM | hit rate 0.19% among 360,000;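 active = fluorescence ratio to DMSO below 75%, the collection mean minus 3 SD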;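 note: signal is porphyrin accumulated inside mitochondria; 100% equals median channel fluorescence of DMSO control wells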
PKA-R1A act: activators of PKA-R1A complex. activation, % at 11.4 µM. hit rate 0.083% among 340,000. PKA-R1A dissociation, Cy5-IP20 fluorescence polarization; scaled: DMSO 0%, 113 µM cGMP 100%;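 active = percent activation above the mean of all tested compounds plus 3 SD, cut at about 19% in these data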;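 note: higher means more PKAc released from R1A so a rise in polarization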
UUG fidelity: modulators of yeast start codon fidelity, primary screen, whole organism, S. cerevisiae, single point, plate reader | activity score, % at 18.7 µM | 350,000 tested, 0.13% active | S. cerevisiae UUG-firefly luciferase reporter, luminescence/redox ratio;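 active means replicate mean at a twofold rise or more, about +100% in these data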;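 further: firefly luciferase made from a UUG start codon reports start codon fidelity; reporter light over untreated wells divided by growth signal over untreated wells; some hits fall short of that in this replicate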
Granule exo inh: lytic granule exocytosis inhibition; AID 651702; inhibition, % at 10 µM; hit rate 0.66% among 360,000; TALL-104 LAMP-1 surface exposure, flow cytometry; cells stimulated with thapsigargin and PMA;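 active = inhibition above about 55%, limit read from the data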
Active calls of the source: *; / = not tested or not shown.

item	p-CIP stab down	PKA-R2B act	ABCB6 inh 2	PKA-R1A act	UUG fidelity	Granule exo inh	Molecule
1	-23.7	-17.2	96.0	7.2	/	80.6*	CCC(C)[C@@H](NC(=O)OC(C)(C)C)c1nnc(S(=O)(=O)Cc2cccc(C)c2)o1 (stereo partly drawn)
2	13.7	-16.4	97.0	-1.4	1.3	-0.1	CCN(CC)S(=O)(=O)c1ccc2oc(C(=O)N3CCOCC3)c(C)c2c1
3	38.5*	2.4	100.0	2.0	-4.2	-5.2	CCN(CC)S(=O)(=O)c1ccc2oc(C(=O)N3CCCCCC3)c(C)c2c1
4	-13.4	3.8	803.0	-2.8	/	80.3*	CC1=CN2C(=N)/C(=C/c3ccc([N+](=O)[O-])o3)C(=O)N=C2S1
5	/	/	/	/	2.4	/	Cc1ccc(S(=O)(=O)NCC[C@H]2CC[C@@H](NC(=O)Nc3cccc(F)c3)[C@H](CO)O2)cc1
6	/	/	/	/	13.8	/	C[C@H](CO)N1C[C@H](C)[C@H](CN(C)Cc2ccc(F)cc2)Oc2ncc(C3=CCCC3)cc2C1=O
7	/	-5.0	112.0	-5.1	-14.4	101.4*	Cc1ccc(S(=O)c2ccc([N+](=O)[O-])c3nonc23)cc1 (stereo not drawn)
8	/	/	/	/	1.0	/	C[C@@H]1CN([C@H](C)CO)C(=O)c2c(c3ccccc3n2C)-c2ccccc2CO[C@@H]1CN(C)CC1CC1
9	/	/	/	/	-11.7	/	CCC(=O)N1[C@H](CN(C)C(=O)CN2CCOCC2)[C@@H](c2ccccc2)[C@@H]1CO
10	-7.2	-4.2	88.0	-3.5	/	91.0*	CC(=O)C(C(C)=O)c1c(Cl)c(O)c(O)c2c(C(=O)c3ccccc3)coc12
11	45.9*	1.1	100.0	-8.1	11.3	8.9	CCCCNC(=O)CC1N=C2c3ccccc3N=C(SCC(=O)Nc3ccc(OC)cc3)N2C1=O (stereo not drawn)
12	-5.2	-1.5	101.0	8.5	-0.3	1.0	CCCCNC(=O)CC1N=C2c3ccccc3N=C(SCC(=O)Nc3cccc(OC)c3)N2C1=O (stereo not drawn)
13	/	/	/	/	-3.6	/	CC(C)C#Cc1ccc2c(c1)O[C@H](CN(C)Cc1ccncc1)[C@@H](C)CN([C@@H](C)CO)S2(=O)=O
14	/	/	/	/	16.2	/	Cc1ccc(S(=O)(=O)N(C)C[C@@H]2Oc3ccc(NS(=O)(=O)c4ccc(F)cc4)cc3CC(=O)N([C@H](C)CO)C[C@@H]2C)cc1
15	/	-17.2	86.0	-14.4	-3.8	53.6	C=CCC[C@@H](Cc1ccc(F)cc1)C(=O)OC[C@@H](Cc1c[nH]c2ccccc12)NC(=O)[C@@H](CC=C)CC(=O)N(CCO)Cc1ccccc1

Compound profiles (already shown). Screens in order: p-CIP stab down, PKA-R2B act, ABCB6 inh 2, PKA-R1A act, UUG fidelity, Granule exo inh
C=CCC[C@@H](Cc1ccc(F)cc1)C(=O)OC[C@@H](Cc1c[nH]c2ccccc12)NC(=O)[C@@H](CC=C)CC(=O)N(CCO)Cc1ccccc1 is listed as /, -17.2, 86.0, -14.4, -3.8, 53.6
Cc1ccc(S(=O)c2ccc([N+](=O)[O-])c3nonc23)cc1 (stereo not drawn) is listed as /, -5.0, 112.0, -5.1, -14.4, 101.4*
CCC(=O)N1[C@H](CN(C)C(=O)CN2CCOCC2)[C@@H](c2ccccc2)[C@@H]1CO is listed as /, /, /, /, -11.7, /

Other results:
item	p-CIP stab down	PKA-R2B act	ABCB6 inh 2	PKA-R1A act	UUG fidelity	Granule exo inh	Molecule
16	/	-9.5	102.0	-8.8	-13.0	58.9*	C=CCC[C@H](Cc1ccc(F)cc1)C(=O)OC[C@H](Cc1c[nH]c2ccccc12)NC(=O)[C@H](CC=C)CC(=O)N(CCO)Cc1ccccc1
17	-9.9	0.2	92.0	5.6	-23.1	38.0	Cc1onc(-c2ccccc2)c1C(=O)OCCOc1ccc([N+](=O)[O-])cc1[N+](=O)[O-]
18	9.8	-1.6	91.0	1.6	4.8	94.5*	Cc1ccccc1OCCOC(=O)c1c(-c2ccccc2)noc1C
19	-6.0	0.7	78.0	-6.9	-28.5	64.9*	CCCCCCCCCCOC(=O)Cn1c(COc2ccc(OC)cc2)[n+](C)c2ccccc21
20	-0.6	3.9	99.0	-4.4	-20.7	79.8*	CCCCCCCCCCOC(=O)Cn1c(COc2ccccc2C)[n+](C)c2ccccc21
21	-23.3	3.3	86.0	-7.7	-19.0	65.9*	CCCCCCCCCCOC(=O)Cn1c(COc2ccccc2)[n+](C)c2ccccc21
22	-0.9	0.8	104.0	4.8	5.1	28.9	CC1CCC(C(C)C)C(OC(=O)Cn2c(-c3ccc(Br)cc3)[n+](C)c3ccccc32)C1 (stereo not drawn)
23	0.4	1.2	97.0	-1.2	/	90.4*	Cc1ccccc1OCc1n(CC(=O)OC2CC(C)CCC2C(C)C)c2ccccc2[n+]1C (stereo not drawn)
24	-16.3	1.0	93.0	-13.1	-82.1	34.9	CCCCCCCCCCOC(=O)Cn1c(COc2ccc(Cl)cc2)[n+](C)c2ccccc21
25	7.1	-8.7	89.0	-10.4	-12.8	74.4*	CCCCCCCCCCOC(=O)Cn1c(COc2cccc(C)c2)[n+](C)c2ccccc21
26	/	/	/	/	-3.2	/	COc1ccc(S(=O)(=O)N[C@H]2CC[C@H](CC(=O)NCc3ccccc3F)O[C@H]2CO)cc1
27	-13.8	-5.6	99.0	-11.1	/	28.4	N#CC(C#N)=C1C=CC=CN1/C(=C\c1ccco1)C(=O)c1ccc(-c2ccccc2)cc1
28	-9.7	-4.3	104.0	-19.5	/	90.1*	N#CC(C#N)=C1C=CC=CN1/C(=C\c1ccco1)C(=O)c1ccc(Cl)cc1
29	/	/	/	/	-6.1	/	Cc1ccc(S(=O)(=O)Nc2ccc3c(c2)C(=O)N([C@H](C)CO)C[C@@H](C)[C@H](CN(C)Cc2ccc4c(c2)OCO4)O3)cc1
30	-22.8	-10.4	98.0	-12.6	/	-0.5	CC(=O)Nc1cc([N+](=O)[O-])ccc1N1CCOCC1

Entries above shown as hits in p-CIP stab down:
item	p-CIP stab down	PKA-R2B act	ABCB6 inh 2	PKA-R1A act	UUG fidelity	Granule exo inh	Molecule
3	38.5*	2.4	100.0	2.0	-4.2	-5.2	CCN(CC)S(=O)(=O)c1ccc2oc(C(=O)N3CCCCCC3)c(C)c2c1
11	45.9*	1.1	100.0	-8.1	11.3	8.9	CCCCNC(=O)CC1N=C2c3ccccc3N=C(SCC(=O)Nc3ccc(OC)cc3)N2C1=O (stereo not drawn)

Later entries.
item	p-CIP stab down	PKA-R2B act	ABCB6 inh 2	PKA-R1A act	UUG fidelity	Granule exo inh	Molecule
31	2.2	-0.5	97.0	-13.9	-15.4	76.6*	O=C(Nc1ccc([N+](=O)[O-])cc1)Nc1ccc(N2CCOCC2)c2nonc12
32	-11.8	0.5	100.0	8.8	-27.4	61.7*	CC(C)(C)c1nn(-c2ccccc2)c2[nH]c(=O)c(C=O)cc12
33	-3.4	-6.7	110.0	5.3	-7.0	1.9	CC(C)(C)c1nn(-c2ccccc2)c2nc(Cl)c(C=O)cc12
34	/	/	/	/	-15.5	/	C[C@@H]1CN([C@@H](C)CO)C(=O)c2cccc(NS(=O)(=O)c3cn(C)cn3)c2O[C@H]1CN(C)Cc1ccc(C(=O)O)cc1
35	-0.5	-3.2	98.0	-7.1	-11.9	59.3*	Cc1c(NC(=O)C(Sc2ccccc2)c2ccccc2)cccc1[N+](=O)[O-] (stereo not drawn)
36	4.4	-3.9	98.0	-5.5	-19.7	-1.0	CC(=O)Nc1ccc(N/C=C(\C=O)c2nc3ccccc3o2)cc1
37	-6.9	-0.7	100.0	-12.1	-8.9	56.1*	CC(=O)Nc1cccc(N/C=C(\C=O)c2nc3ccccc3o2)c1
38	-62.3	-1.9	54.0*	-10.4	-11.0	-2.7	COC(=O)c1sccc1-c1ccc(/C=N/OC(=O)c2ccccc2)o1
39	/	/	/	/	-12.7	/	C[C@H](CO)N1C[C@H](C)[C@@H](CN(C)C(=O)Nc2ccc(C(F)(F)F)cc2)OCCCC[C@H](C)Oc2ccc(NS(=O)(=O)c3cccs3)cc2C1=O
40	-11.1	3.0	103.0	3.9	/	97.0*	O=[N+]([O-])c1c(Nc2ccccn2)cc(Cl)c2nonc12
41	1.3	-3.0	100.0	4.8	1.5	-2.5	O=C(O)c1ccccc1Nc1cc(Cl)c2nonc2c1[N+](=O)[O-]
42	-2.4	5.9	97.0	-11.4	-24.1	-2.9	COC(=O)c1cn(NC(=O)c2cccc(F)c2)c(=O)c2ccccc12

Screens from PubChem.
